The record followed here is paper PMC8609367 (mBio, 2021).

For this test, the system named is interleukin-2 (IL-2) production in primary murine CD4+ T cells. Conditions: comparing 71-fold reduction in immunosuppressive activity and 17-fold reduction in efficacy in C. neoformans.

Turning to `C=CCC1C=C(C)CC(C)CC(OC)C2OC(O)(C(=O)C(=O)N3CCCCC3C(=O)OC(C(C)=CC3CCC(O)C(OC)C3)C(C)C(O)CC1=NNC(C)=O)C(C)CC2OC` (stereo not shown) [APX879], the “Improvement in the therapeutic window” value was 4 fold.
